Data published in patent publication US5777190A (priority 1997, dated 1998).
This is a selection: effects in other tests are not listed, and their absence says nothing.

Sequences of proteins named here, by UniProt entry; tags and fusion partners are left off. Residues count along the entry.
UniProt P00455, 56-369 limits assumed: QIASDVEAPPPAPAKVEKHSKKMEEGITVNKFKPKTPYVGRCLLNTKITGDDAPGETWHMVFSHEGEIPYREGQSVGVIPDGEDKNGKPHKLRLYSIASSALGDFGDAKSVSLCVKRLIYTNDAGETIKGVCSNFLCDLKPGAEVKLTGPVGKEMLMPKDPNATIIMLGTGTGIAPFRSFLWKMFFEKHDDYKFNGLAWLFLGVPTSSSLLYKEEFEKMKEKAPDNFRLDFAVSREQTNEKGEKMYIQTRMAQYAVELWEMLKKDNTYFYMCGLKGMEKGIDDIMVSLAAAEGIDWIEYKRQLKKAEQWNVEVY

Target: ferredoxin NADP oxidoreductase (FNR, EC 1.18.1.2) from spinach (Spinacia oleracea, UniProt P00455)

## Cc1c([N+](=O)[O-])cc([N+](=O)[O-])cc1[N+](=O)[O-]
0.4 units per ml FNR, 1 mM substrate, NADPH, tris buffer pH 8.5, under nitrogen, 22° C
  reduction by FNR under nitrogen (product formed): reduced to one major metabolite
Aerobic conditions
  reduction by FNR under aerobic conditions: not reduced
